Data on one compound can be found in ChEMBL document CHEMBL3046112, “Comparative study of antimicrobial peptides to control citrus postharvest decay caused by Penicillium digitatum” (J Agric Food Chem, 2007).

This assay has as its system Escherichia coli. The assay is described as follows: Antimicrobial activity against Escherichia coli DH5[alpha] assessed as microbial growth inhibition after 4 days by microtiter plate assay. The format is functional. Conditions: 96 h. The procedure, abridged:
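Microtiter dose–response assay, as previously described. Peptide stocks were 1 mM in 5 mM MOPS pH 7. P. digitatum conidia came from 7–10-day PDA cultures grown at 24 °C and were counted with a hematocytometer. Yeast (YPD, 30 °C) and E. coli (LB, 37 °C) were grown to stationary phase and diluted. Growth was read as OD492 in triplicate. MIC: lowest concentration with no growth after 4 days in all independent experiments, each repeated at least three times.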

Values after ≈ are worked out from the molar mass of the structure shown.

In the case of `CC[C@H](C)[C@H](NC(=O)CN)C(=O)NCC(=O)N[C@@H](C)C(=O)N[C@H](C(=O)N[C@@H](CC(C)C)C(=O)N[C@@H](CCCCN)C(=O)N[C@H](C(=O)N[C@@H](CC(C)C)C(=O)N[C@H](C(=O)N[C@H](C(=O)NCC(=O)N[C@@H](CC(C)C)C(=O)N1CCC[C@H]1C(=O)N[C@@H](C)C(=O)N[C@@H](CC(C)C)C(=O)N[C@H](C(=O)N[C@@H](CO)C(=O)N[C@@H](Cc1c[nH]c2ccccc12)C(=O)N[C@H](C(=O)N[C@@H](CCCCN)C(=O)N[C@@H](CCCNC(=N)N)C(=O)N[C@@H](CCCCN)C(=O)N[C@@H](CCCNC(=N)N)C(=O)N[C@@H](CCC(N)=O)C(=O)N[C@@H](CCC(N)=O)C(N)=O)[C@@H](C)CC)[C@@H](C)CC)[C@@H](C)O)[C@@H](C)O)C(C)C)C(C)C` [MELITTIN], the MIC came out at 8 µM (≈ 22.8 µg/mL).

In general, MIC refers to the least concentration at which growth counts as inhibited.
